From patent US10155743B2, “Glutarimide derivatives, use thereof, pharmaceutical composition based thereon and methods for producing glutarimide derivatives” (OBSCHESTVO S OGRANICHENNOI OTVETSTVENNOSTIYU …, priority 2013, dated 2018)

Tested on: human virus hRSV adapted to the growth in mouse lungs
Assay: animal or person
Assay type: in vivo
Conditions: for log reduction at 40 mg/kg: human respiratory syncytial virus, po
[1] = Ribavirin 40 mg/kg (reference preparation), M ± SD, n = 6
[2] = Ribavirin 40 mg/kg, lung suspension titrated in Hep-2 cell culture

Structure (SMILES): NC(=O)c1ncn([C@@H]2O[C@H](CO)[C@@H](O)[C@H]2O)n1 [Ribavirin, reference compound]
- Body weight of the mice after infection with hRSV, Day 5 [1]: 16.20 ± 0.24
- Body weight of the mice after infection with hRSV, Day 7 [1]: 17.23 ± 0.22
- hRSV viral titer in mouse lungs, Day 5, lg [2]: 2.1 ± 0.12 lg
- hRSV viral titer in mouse lungs, Day 7, lg [2]: 1.15 ± 0.12 lg
- log reduction at 40 mg/kg (120 h, read-out: Suppression of the reproduction of hRSV virus in mouse lungs, Day 5, Δlg): 2.4 ± 0.12
- log reduction at 40 mg/kg (168 h, read-out: Suppression of the reproduction of hRSV virus in mouse lungs, Day 7, Δlg): 2.4 ± 0.12

Like-named read-outs stand apart in the source and are kept apart here.
